## Binding of CDR-mutated scFvs to a peptide of the spike HR2 region

From the AlphaSeq antibody data of Engelhart et al. 2022 (doi:10.1038/s41597-022-01779-4), copy in the FLAb collection.

Target: peptide PDVDLGDISGINAS, taken from heptad repeat 2 (HR2) of SARS-CoV-2 spike.

Each scFv is VH, three GGGGS repeats, VL, as in the parent Ab-95, and differs from it in the CDRs of the light chain only.
VH: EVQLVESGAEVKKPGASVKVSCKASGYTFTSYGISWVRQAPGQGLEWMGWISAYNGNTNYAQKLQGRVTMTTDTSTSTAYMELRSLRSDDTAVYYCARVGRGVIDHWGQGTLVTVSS
VL: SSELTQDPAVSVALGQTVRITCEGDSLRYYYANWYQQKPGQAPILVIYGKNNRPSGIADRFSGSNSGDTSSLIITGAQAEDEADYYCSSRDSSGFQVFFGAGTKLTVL

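Phage display of a naive human antibody library on the peptide gave the parent. AAYL52 was designed without a model: most single CDR substitutions and a random sample of double and triple ones. AlphaSeq pools MATa yeast showing the antibodies with MATalpha yeast showing the peptide. Pairs that bind mate more often; barcode pairs of the diploids are counted by sequencing. Scores were corrected for input abundance and mapped to Kd with protein pairs of known affinity run in the same pool. There are three technical replicates.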

Substitutions are numbered in sequence along the VL above, starting at 1 (not Kabat).
The read-out is the apparent dissociation constant on a log10 scale (nM): the lower, the stronger.
"nd" means that the variant was in the library but no mating with the target was seen in that replicate; the authors take this as a sign of poor binding, and no number exists.

| changes | log10 Kd, replicates |
|---|---|
| L27Y+Y31Q+P54M | nd / nd / nd |
| N51F+D91T+G94K | 4.40 / 3.98 / 4.19 |
| Y29D+S92R+Q96W | 3.41 / 2.73 / 1.81 |
| E23P+Y31P | 3.02 / 2.39 / 2.58 |
| S88D+S92R | 2.20 / 2.37 / 3.95 |
| N51F+S88K+Q96E | 3.74 / 5.10 / nd |
| E23N+D25P+Y29I | 2.77 / 2.69 / 2.57 |
| D25K+D91G | 3.53 / 3.53 / 3.12 |
| D25R+R53D+D91N | nd / nd / 3.44 |
| L27K+Y29T+S93D | 4.62 / nd / 4.25 |
| G24T+S55L+S89C | nd / 2.47 / nd |
| R53G+S88Q+S93V | nd / 3.36 / 1.88 |
| G94M+F95C+Q96F | nd / nd / 2.54 |
| S26V+S55V+S89G | 3.27 / 2.61 / 2.28 |
| R53L+S88I | 3.94 / 4.60 / 4.19 |
| D25L+R53Y+S93E | 3.51 / nd / 4.52 |
| E23Q+S93P+F98P | 2.32 / 2.29 / 2.50 |
| L27F+S89W+S92H | nd / nd / nd |
| Y29D+Y30P | 1.88 / 1.83 / 1.74 |
| N51D+D91L+Q96W | 4.85 / nd / nd |
| S26L+G94A+F95R | 4.75 / nd / nd |
| R28H+Y29T+N51L | nd / nd / 4.19 |
| Y29N+R90I+G94T | 1.43 / 1.23 / 0.93 |
| R28I+R90Q | 3.53 / nd / nd |
| E23H+L27T+K50M | nd / nd / nd |
| Y31T+K50L+R90E | 5.65 / 4.02 / nd |
| L27F+V97Y | 2.51 / 2.65 / 2.41 |
| R90G+Q96N | 2.24 / 2.57 / 2.06 |
| D25C+Y31N+V97Y | 3.02 / 2.90 / 2.74 |
| D25K+N51R+S89T | 4.92 / 3.36 / nd |
| S26V+L27R+F95A | 3.08 / 2.77 / 4.76 |
| N33R+R53E+S55Y | 4.44 / nd / nd |
| Y31T+S92P | 2.04 / 1.77 / 1.11 |
| E23M+A32R+F95N | 3.57 / nd / 3.51 |
| E23P+N33A+S55G | 3.71 / nd / nd |
| E23K+G24W+D91Y | 3.50 / nd / 3.11 |
| G24A+A32K+N33T | nd / nd / nd |
| E23A+Y31A+S88W | 2.23 / 2.05 / 1.75 |
| Y31F+P54F+F98W | 3.40 / 5.05 / nd |
| S26G+Y29D+V97A | 4.29 / 4.35 / nd |
| E23F+S89P+D91R | nd / nd / nd |
| A32K+N51G+V97P | nd / nd / nd |
| S55M+S89Q+R90V | 2.95 / 3.41 / nd |
| Y30S+Y31V+P54S | 2.85 / 2.50 / 3.23 |
| G49F+N52Y+F98P | nd / 5.78 / nd |
| N52F+R53F+F98M | 5.14 / 5.15 / nd |
| S55V+S89I+S93E | 2.39 / 2.49 / 2.12 |
| D25G+N52Q+S92N | 3.60 / 2.32 / 2.46 |

7 of these entries, quoted again:

| changes | log10 Kd, replicates |
|---|---|
| R90G+Q96N | 2.24 / 2.57 / 2.06 |
| Y31F+P54F+F98W | 3.40 / 5.05 / nd |
| G24A+A32K+N33T | nd / nd / nd |
| E23P+N33A+S55G | 3.71 / nd / nd |
| L27Y+Y31Q+P54M | nd / nd / nd |
| Y30S+Y31V+P54S | 2.85 / 2.50 / 3.23 |
| E23F+S89P+D91R | nd / nd / nd |

Empty control strains, which show no peptide, gave a signal in 28% of pairings with library AAYL52; the median was 3.91 and 95% of these signals were weaker than 2.90. No background was subtracted.
In this assay the parent's reference entry averaged 2.31; its copy inside this library read 2.25.